# Biological target: FLT3 (Homo sapiens, UniProt P36888)
# Amino acid sequences for entries named in this document (tags omitted). Residues count along the entry.
# UniProt P36888, 27-993 limits assumed: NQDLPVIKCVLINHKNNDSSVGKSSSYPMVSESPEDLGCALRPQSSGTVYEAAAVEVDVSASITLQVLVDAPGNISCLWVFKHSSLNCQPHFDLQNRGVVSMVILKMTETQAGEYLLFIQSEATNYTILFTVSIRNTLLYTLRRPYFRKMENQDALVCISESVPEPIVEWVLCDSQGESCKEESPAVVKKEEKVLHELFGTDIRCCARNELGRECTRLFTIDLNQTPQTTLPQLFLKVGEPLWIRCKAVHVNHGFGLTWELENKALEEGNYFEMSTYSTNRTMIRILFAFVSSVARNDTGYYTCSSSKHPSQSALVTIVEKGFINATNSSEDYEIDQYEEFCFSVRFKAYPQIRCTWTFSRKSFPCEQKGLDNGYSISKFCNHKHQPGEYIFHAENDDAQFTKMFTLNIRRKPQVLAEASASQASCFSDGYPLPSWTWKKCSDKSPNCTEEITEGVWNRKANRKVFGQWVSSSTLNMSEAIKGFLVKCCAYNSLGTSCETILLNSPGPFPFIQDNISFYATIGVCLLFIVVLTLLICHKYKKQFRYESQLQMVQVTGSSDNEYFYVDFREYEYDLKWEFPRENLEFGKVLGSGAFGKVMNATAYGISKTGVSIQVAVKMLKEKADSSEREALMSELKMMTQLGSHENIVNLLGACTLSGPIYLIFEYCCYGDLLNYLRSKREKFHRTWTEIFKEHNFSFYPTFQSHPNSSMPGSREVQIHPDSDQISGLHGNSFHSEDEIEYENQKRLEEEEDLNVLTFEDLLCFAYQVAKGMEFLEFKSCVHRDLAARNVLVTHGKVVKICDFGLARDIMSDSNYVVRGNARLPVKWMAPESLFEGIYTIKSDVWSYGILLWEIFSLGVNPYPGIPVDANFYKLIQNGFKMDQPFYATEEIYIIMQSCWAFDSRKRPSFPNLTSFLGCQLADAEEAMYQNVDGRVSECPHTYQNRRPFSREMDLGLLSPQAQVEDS
# Test: SelectScreen kinase assay against FLT3
# Conditions: esters of formula (IB), ATP at 100 micromolar
compound,measurement,setting,value
CCCCCCCC(=O)Oc1ccc2c(c1)c(=O)c1c(NCCN(CC)CC)ccc3ncn2c31,E1000 (percent inhibition at 1000 nMolar),1000 nMolar,74%
same,EC50,,277 nM

# Source: patent US20080108641A1, “Compounds for treating inflammatory disorders, demyelinating disdorders and cancers” (priority 2006, published 2008)
